Measured values: patent US9751885B2, “Cyclopropanamine compound and use thereof” (Takeda Pharmaceutical Company Limited, priority 2012, dated 2017)

By UniProt entry, the sequences of proteins in these tests, tags left out.
UniProt P21397, whole entry: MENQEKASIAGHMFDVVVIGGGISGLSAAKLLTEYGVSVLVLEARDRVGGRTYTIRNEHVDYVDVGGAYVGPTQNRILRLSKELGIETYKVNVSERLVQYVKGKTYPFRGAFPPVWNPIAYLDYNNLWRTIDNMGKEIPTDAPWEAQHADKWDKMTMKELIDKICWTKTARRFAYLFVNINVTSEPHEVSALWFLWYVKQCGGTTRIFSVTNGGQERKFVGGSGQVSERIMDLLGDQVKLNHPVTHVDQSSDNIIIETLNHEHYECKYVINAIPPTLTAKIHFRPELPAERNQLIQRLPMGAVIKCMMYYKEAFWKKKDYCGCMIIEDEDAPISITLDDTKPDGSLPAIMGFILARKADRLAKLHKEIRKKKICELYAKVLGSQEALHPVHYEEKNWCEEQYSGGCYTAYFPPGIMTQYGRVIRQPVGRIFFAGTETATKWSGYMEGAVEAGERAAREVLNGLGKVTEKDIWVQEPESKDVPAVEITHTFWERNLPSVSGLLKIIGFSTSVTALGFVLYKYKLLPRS
UniProt P27338, whole entry: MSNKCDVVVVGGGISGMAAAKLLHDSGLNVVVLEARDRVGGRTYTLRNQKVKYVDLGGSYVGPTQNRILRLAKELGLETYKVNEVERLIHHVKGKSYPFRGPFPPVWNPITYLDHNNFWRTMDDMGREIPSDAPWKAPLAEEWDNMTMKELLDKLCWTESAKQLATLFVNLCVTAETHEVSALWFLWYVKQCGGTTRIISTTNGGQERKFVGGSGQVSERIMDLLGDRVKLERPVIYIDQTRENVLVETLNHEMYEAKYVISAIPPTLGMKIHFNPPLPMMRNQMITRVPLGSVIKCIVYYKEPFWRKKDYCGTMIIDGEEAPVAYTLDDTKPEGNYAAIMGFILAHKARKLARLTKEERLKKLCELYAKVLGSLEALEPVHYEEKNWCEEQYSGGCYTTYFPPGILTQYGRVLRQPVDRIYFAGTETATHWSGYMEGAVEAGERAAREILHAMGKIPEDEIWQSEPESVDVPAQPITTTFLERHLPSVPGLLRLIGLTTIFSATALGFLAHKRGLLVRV

How the values were obtained:
MAO-A enzyme = MAO-A enzyme (Homo sapiens (Human), UniProt P21397); test: Measurement of MAO-A inhibitory activity (MAO-Glo Assay); assay type: biochemical
MAO-B enzyme = MAO-B enzyme (Homo sapiens (Human), UniProt P27338); test: Measurement of MAO-B inhibitory activity (MAO-Glo Assay); settings: read-out: MAO-B IC50 value;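 also: luminescence read-out, compound preincubated 10 min with enzyme then reacted 60 min at room temperature, inhibition relative to enzyme reaction without compound, blank lacking enzyme and compound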

Structure (SMILES)	IC50 (MAO-A enzyme)	IC50 (MAO-B enzyme)
Cc1nn(C)cc1NC(=O)c1cccc([C@@H]2C[C@H]2NCC(C)(C)C)c1 (relative stereo) [Example 157, 3-(trans-2-((2,2-dimethylpropyl)amino)cyclopropyl)-N-(1,3-dimethyl-1H-pyrazol-4-yl)benzamide dihydrochloride]	> 10 µM	> 10 µM
COc1ccc([C@@H]2C[C@H]2NCC2CC2)cc1C(=O)Nc1nnc(C)s1 (relative stereo) [Example 159, 5-(trans-2-((cyclopropylmethyl)amino)cyclopropyl)-2-methoxy-N-(5-methyl-1,3,4-thiadiazol-2-yl)benzamide dihydrochloride]	> 10 µM	> 10 µM
COc1ccc([C@@H]2C[C@H]2NCC2CC2)cc1C(=O)NC1CCOCC1 (relative stereo) [Example 160, 5-(trans-2-((cyclopropylmethyl)amino)cyclopropyl)-2-methoxy-N-(tetrahydro-2H-pyran-4-yl)benzamide hydrochloride]	> 10 µM	> 10 µM
Cc1nnc(NC(=O)c2ccc(C)c([C@@H]3C[C@H]3NCC3CC3)c2)s1 (relative stereo) [Example 161, 3-(trans-2-((cyclopropylmethyl)amino)cyclopropyl)-4-methyl-N-(5-methyl-1,3,4-thiadiazol-2-yl)benzamide dihydrochloride]	> 10 µM	> 10 µM
COc1ccc(C(=O)Nc2nnc(C)s2)cc1[C@@H]1C[C@H]1NCC1CC1 (relative stereo) [Example 162, 3-(trans-2-((cyclopropylmethyl)amino)cyclopropyl)-4-methoxy-N-(5-methyl-1,3,4-thiadiazol-2-yl)benzamide dihydrochloride]	> 10 µM	> 10 µM
COc1cc(C(=O)Nc2nnc(C)s2)cc([C@@H]2C[C@H]2NCC2CC2)c1 (relative stereo) [Example 163, 3-(trans-2-((cyclopropylmethyl)amino)cyclopropyl)-5-methoxy-N-(5-methyl-1,3,4-thiadiazol-2-yl)benzamide dihydrochloride]	> 10 µM	> 10 µM
Cn1cc(NC(=O)c2cccc([C@@H]3C[C@H]3N(C3CCC3)C3CCC3)c2)cn1 (relative stereo) [Example 170, 3-(trans-2-(dicyclobutylamino)cyclopropyl)-N-(1-methyl-1H-pyrazol-4-yl)benzamide dihydrochloride]	> 10 µM	> 10 µM
Cc1cc(NC(=O)c2cccc([C@@H]3C[C@H]3N)c2)n(C)n1 (relative stereo) [Example 180, 3-(trans-2-aminocyclopropyl)-N-(1,3-dimethyl-1H-pyrazol-5-yl)benzamide dihydrochloride]	> 10 µM	> 10 µM
O=C(Nc1ccc(-c2ncccn2)cc1)c1cccc([C@@H]2C[C@H]2NC2CCS(=O)(=O)CC2)c1 (relative stereo) [Example 193, 3-(trans-2-((1,1-dioxidotetrahydro-2H-thiopyran-4-yl)amino)cyclopropyl)-N-(4-(pyrimidin-2-yl)phenyl)benzamide dihydrochloride]	> 10 µM	> 10 µM
CC(C)(C)n1cc(NC(=O)c2cccc([C@@H]3C[C@H]3NC3CCOCC3)c2)cn1 (relative stereo) [Example 194, N-(1-tert-butyl-1H-pyrazol-4-yl)-3-(trans-2-(tetrahydro-2H-pyran-4-ylamino)cyclopropyl)benzamide dihydrochloride]	> 10 µM	> 10 µM
CC(C)(C)n1cc(NC(=O)c2cccc([C@@H]3C[C@H]3NC3CCN(C4CC4)CC3)c2)cn1 (relative stereo) [Example 195, N-(1-tert-butyl-1H-pyrazol-4-yl)-3-(trans-2-((1-cyclopropylpiperidin-4-yl)amino)cyclopropyl)benzamide dihydrochloride]	> 10 µM	> 10 µM
O=C(NC1CCCC1)c1cccc([C@@H]2C[C@H]2NC2CCS(=O)(=O)CC2)c1 (relative stereo) [Example 198, N-cyclopentyl-3-(trans-2-((1,1-dioxidotetrahydro-2H-thiopyran-4-yl)amino)cyclopropyl)benzamide hydrochloride]	> 10 µM	> 10 µM
O=C(Nc1cnn(CC2CC2)c1)c1cccc([C@@H]2C[C@H]2NC2CCN(CC(F)(F)F)CC2)c1 (relative stereo) [Example 203, N-(1-(cyclopropylmethyl)-1H-pyrazol-4-yl)-3-(trans-2-((1-(2,2,2-trifluoroethyl)piperidin-4-yl)amino)cyclopropyl) benzamide trihydrochloride]	> 10 µM	> 10 µM
Cn1cc(NC(=O)c2cccc([C@@H]3C[C@H]3NC3CCC(F)(F)CC3)c2)cn1 (relative stereo) [Example 205, 3-(trans-2-((4,4-difluorocyclohexyl)amino)cyclopropyl)-N-(1-methyl-1H-pyrazol-4-yl)benzamide dihydrochloride]	> 10 µM	> 10 µM
O=C(Nc1ccc(F)cc1)c1cccc([C@@H]2C[C@H]2NC2CCOCC2)c1 (relative stereo) [Example 207, N-(4-fluorophenyl)-3-(trans-2-(tetrahydro-2H-pyran-4-ylamino)cyclopropyl)benzamide hydrochloride]	> 10 µM	> 10 µM
CCn1cc(NC(=O)c2cccc([C@@H]3C[C@H]3NC3CCC(F)(F)CC3)c2)cn1 (relative stereo) [Example 209, 3-(trans-2-((4,4-difluorocyclohexyl)amino)cyclopropyl)-N-(1-ethyl-1H-pyrazol-4-yl)benzamide dihydrochloride]	> 10 µM	> 10 µM
O=C(NC1CCCC1)c1cc([C@@H]2C[C@H]2NC2CCOCC2)ccc1F (relative stereo) [Example 213, N-cyclopentyl-2-fluoro-5-(trans-2-(tetrahydro-2H-pyran-4-ylamino)cyclopropyl)benzamide hydrochloride]	> 10 µM	> 10 µM
COc1ccc([C@@H]2C[C@H]2NC2CCOCC2)cc1C(=O)NC1CCCC1 (relative stereo) [Example 214, N-cyclopentyl-2-methoxy-5-(trans-2-(tetrahydro-2H-pyran-4-ylamino)cyclopropyl)benzamide hydrochloride]	> 10 µM	> 10 µM
COc1ccc([C@@H]2C[C@H]2NC2CCC(F)(F)CC2)cc1C(=O)Nc1nnc(C)s1 (relative stereo) [Example 222, 5-(trans-2-((4,4-difluorocyclohexyl)amino)cyclopropyl)-2-methoxy-N-(5-methyl-1,3,4-thiadiazol-2-yl)benzamide dihydrochloride]	> 10 µM	> 10 µM
Cn1cc(NC(=O)c2cc([C@@H]3C[C@H]3NC3CCC3)ccc2F)cn1 (relative stereo) [Example 225, 5-(trans-2-(cyclobutylamino)cyclopropyl)-2-fluoro-N-(1-methyl-1H-pyrazol-4-yl)benzamide dihydrochloride]	> 10 µM	> 10 µM
COc1ccc([C@@H]2C[C@H]2NC2CCC2)cc1C(=O)Nc1cnn(C)c1 (relative stereo) [Example 226, 5-(trans-2-(cyclobutylamino)cyclopropyl)-2-methoxy-N-(1-methyl-1H-pyrazol-4-yl)benzamide dihydrochloride]	> 10 µM	> 10 µM
COc1ccc([C@@H]2C[C@H]2NC2CCC(F)(F)CC2)cc1C(=O)Nc1cnn(C)c1 (relative stereo) [Example 227, 5-(trans-2-((4,4-difluorocyclohexyl)amino)cyclopropyl)-2-methoxy-N-(1-methyl-1H-pyrazol-4-yl)benzamide dihydrochloride]	> 10 µM	> 10 µM
Cn1cc(NC(=O)c2ccc(F)c([C@@H]3C[C@H]3NC3CCC3)c2)cn1 (relative stereo) [Example 228, 3-(trans-2-(cyclobutylamino)cyclopropyl)-4-fluoro-N-(1-methyl-1H-pyrazol-4-yl)benzamide hydrochloride]	> 10 µM	> 10 µM
O=C(NC1CCOCC1)c1ccc(F)c([C@@H]2C[C@H]2NCC2CC2)c1 (relative stereo) [Example 229, 3-(trans-2-((cyclopropylmethyl)amino)cyclopropyl)-4-fluoro-N-(tetrahydro-2H-pyran-4-yl)benzamide hydrochloride]	> 10 µM	> 10 µM
Cc1ccc(C(=O)NC2CCOCC2)cc1[C@@H]1C[C@H]1NCC1CC1 (relative stereo) [Example 230, 3-(trans-2-((cyclopropylmethyl)amino)cyclopropyl)-4-methyl-N-(tetrahydro-2H-pyran-4-yl)benzamide hydrochloride]	> 10 µM	> 10 µM
Cc1ccc(C(=O)Nc2cnn(C)c2)cc1[C@@H]1C[C@H]1NCC1CC1 (relative stereo) [Example 236, 3-(trans-2-((cyclopropylmethyl)amino)cyclopropyl)-4-methyl-N-(1-methyl-1H-pyrazol-4-yl)benzamide dihydrochloride]	> 10 µM	> 10 µM
Cc1ccc(C(=O)Nc2cnn(C)c2)cc1[C@@H]1C[C@H]1NC1CCC1 (relative stereo) [Example 238, 3-(trans-2-(cyclobutylamino)cyclopropyl)-4-methyl-N-(1-methyl-1H-pyrazol-4-yl)benzamide hydrochloride]	> 10 µM	> 10 µM
Cc1ccc(C(=O)Nc2cnn(C)c2)cc1[C@@H]1C[C@H]1NC1CCCC1 (relative stereo) [Example 239, 3-(trans-2-(cyclopentylamino)cyclopropyl)-4-methyl-N-(1-methyl-1H-pyrazol-4-yl)benzamide hydrochloride]	> 10 µM	> 10 µM
Cc1nn(C)cc1NC(=O)c1cccc([C@@H]2C[C@H]2NC2CCC(F)(F)CC2)c1 (relative stereo) [Example 242, 3-(trans-2-((4,4-difluorocyclohexyl)amino)cyclopropyl)-N-(1,3-dimethyl-1H-pyrazol-4-yl)benzamide dihydrochloride]	> 10 µM	> 10 µM

Structures can show the parent of a compound that is named as a salt.
